Consider 1 molecule from US12138263B2, “Pyrazolo[3,4-b]pyrazine SHP2 phosphatase inhibitors and methods of use thereof” (Relay Therapeutics, Inc., priority 2018, dated 2024).

Amino acid sequences for entries named in this document (tags omitted).
UniProt Q06124, whole entry: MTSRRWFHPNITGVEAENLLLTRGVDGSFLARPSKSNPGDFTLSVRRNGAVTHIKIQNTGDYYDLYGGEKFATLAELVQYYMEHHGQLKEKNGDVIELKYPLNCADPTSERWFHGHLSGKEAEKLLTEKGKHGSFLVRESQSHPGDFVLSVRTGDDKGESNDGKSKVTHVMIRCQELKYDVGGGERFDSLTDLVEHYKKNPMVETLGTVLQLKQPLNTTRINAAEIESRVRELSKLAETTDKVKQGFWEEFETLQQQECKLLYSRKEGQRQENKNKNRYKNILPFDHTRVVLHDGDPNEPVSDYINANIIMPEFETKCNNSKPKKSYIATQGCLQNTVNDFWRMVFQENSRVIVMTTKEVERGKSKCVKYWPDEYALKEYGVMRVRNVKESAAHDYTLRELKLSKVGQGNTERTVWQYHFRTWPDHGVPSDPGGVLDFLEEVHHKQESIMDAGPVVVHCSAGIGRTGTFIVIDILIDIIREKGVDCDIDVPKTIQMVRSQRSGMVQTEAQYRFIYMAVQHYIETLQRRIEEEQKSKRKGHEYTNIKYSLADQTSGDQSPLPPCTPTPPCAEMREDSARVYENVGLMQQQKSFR

The structures appear in SMILES notation.

In this assay the target is SHP2 (Homo sapiens (Human), UniProt Q06124). The assay can be described thus: SHP2 allosteric inhibition assay (DiFMUP prompt fluorescence). The format is biochemical. The following applies: read-out: SHP2 IC50; Table 3; 0.25 nM SHP2 with 0.5 μM peptide IRS1_pY1172(dPEG8)pY1222, substrate DiFMUP 100 μM.

In the case of `C[C@@H]1OCC2(CCN(c3nc4[nH]nc(N5CCCc6nc(-c7cnn(C)c7)ccc65)c4nc3CO)CC2)[C@@H]1N`, the IC50 was under 1 µM.

One may read the IC50 as the midpoint of a concentration-inhibition curve.
